Laboratory results: patent US6515124B2, “Dehydroamino acids” (Hoffman-La Roche Inc., priority 2000, dated 2003)

Protein sequences, listed by entry. Tags and fused reporters are not part of them. Residues count along the entry.
UniProt P05107, 23-769 limits assumed: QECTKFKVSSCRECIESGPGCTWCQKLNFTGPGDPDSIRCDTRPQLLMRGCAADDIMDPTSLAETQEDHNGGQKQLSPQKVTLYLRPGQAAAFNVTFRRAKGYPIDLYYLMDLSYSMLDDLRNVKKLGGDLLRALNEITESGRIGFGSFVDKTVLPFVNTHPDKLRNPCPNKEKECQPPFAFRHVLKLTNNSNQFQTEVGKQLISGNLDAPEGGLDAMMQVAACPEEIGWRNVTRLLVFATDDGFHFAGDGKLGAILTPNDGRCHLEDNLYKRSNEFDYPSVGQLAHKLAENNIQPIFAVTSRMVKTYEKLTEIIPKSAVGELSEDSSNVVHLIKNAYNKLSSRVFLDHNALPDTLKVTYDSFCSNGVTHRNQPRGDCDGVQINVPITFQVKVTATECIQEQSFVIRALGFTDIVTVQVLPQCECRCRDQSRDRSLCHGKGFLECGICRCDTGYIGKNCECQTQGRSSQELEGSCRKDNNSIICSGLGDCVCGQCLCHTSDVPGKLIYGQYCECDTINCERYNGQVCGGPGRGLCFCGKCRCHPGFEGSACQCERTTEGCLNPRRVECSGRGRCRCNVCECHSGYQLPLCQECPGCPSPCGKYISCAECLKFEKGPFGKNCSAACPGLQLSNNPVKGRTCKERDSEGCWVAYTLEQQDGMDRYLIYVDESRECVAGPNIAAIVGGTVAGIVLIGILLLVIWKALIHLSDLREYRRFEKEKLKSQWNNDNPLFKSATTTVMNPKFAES
UniProt P20701, 26-1170 limits assumed: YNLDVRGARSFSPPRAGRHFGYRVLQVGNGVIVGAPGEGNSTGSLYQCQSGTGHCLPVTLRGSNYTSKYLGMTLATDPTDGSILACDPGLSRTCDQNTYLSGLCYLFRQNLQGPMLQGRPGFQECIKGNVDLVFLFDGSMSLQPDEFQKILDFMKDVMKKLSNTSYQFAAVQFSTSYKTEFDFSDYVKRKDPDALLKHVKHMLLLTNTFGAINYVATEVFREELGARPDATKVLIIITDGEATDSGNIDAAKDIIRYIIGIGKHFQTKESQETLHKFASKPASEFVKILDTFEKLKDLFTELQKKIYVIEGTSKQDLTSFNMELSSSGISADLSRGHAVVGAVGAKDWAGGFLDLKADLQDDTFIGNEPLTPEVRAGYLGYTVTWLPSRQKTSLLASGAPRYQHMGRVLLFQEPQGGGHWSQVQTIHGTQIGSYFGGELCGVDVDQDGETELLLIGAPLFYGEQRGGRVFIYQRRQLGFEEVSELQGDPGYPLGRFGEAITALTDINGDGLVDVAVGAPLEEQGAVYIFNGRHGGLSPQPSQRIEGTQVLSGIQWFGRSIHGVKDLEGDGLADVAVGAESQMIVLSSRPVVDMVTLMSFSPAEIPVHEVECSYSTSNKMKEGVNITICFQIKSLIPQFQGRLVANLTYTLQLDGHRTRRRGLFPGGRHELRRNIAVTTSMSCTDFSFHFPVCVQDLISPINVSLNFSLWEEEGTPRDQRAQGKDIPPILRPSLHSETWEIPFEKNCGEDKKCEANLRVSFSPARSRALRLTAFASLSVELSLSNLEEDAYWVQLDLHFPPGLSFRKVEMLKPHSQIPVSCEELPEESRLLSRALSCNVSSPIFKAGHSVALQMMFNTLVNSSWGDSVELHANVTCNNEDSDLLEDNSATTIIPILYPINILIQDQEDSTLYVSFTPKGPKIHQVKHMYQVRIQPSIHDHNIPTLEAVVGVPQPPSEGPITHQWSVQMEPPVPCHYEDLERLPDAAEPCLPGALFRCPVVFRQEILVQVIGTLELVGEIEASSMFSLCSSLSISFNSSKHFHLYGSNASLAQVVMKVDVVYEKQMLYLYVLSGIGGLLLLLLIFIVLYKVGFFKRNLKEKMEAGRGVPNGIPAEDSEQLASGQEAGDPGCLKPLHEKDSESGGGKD

Target: LFA-1 binding to immobilized ICAM-1 (Homo sapiens, UniProt P05107+P20701)
Assay: LFA-1/ICAM-1 Protein-Protein Assay (solid-phase ELISA)
Conditions: read-out: LFA-1/ICAM-1 Protein-Protein Assay IC50; 5dICAM-Ig coated plates; membrane-bound LFA-1 from transfected 293 cells
Experimental: LFA-1/ICAM-1 Protein-Protein Assay
LFA-1/ICAM-1 antagonist activity, defined as the ability to block LFA-1 binding to immobilized ICAM-1, was quantitated using a solid-phase ELISA. Typically, fusion protein consisting of the entire extracellular domain of human ICAM-1 and the Fc domain of human IgG (5dICAM-Ig) was coated onto 96-well microtiter plates (0.15 μg in 100 μL PBS) overnight at 4° C. The plates were then blocked with 150 μL of 1% BSA/1 mM MnCl2/0.14 M NaCl/20 mM HEPES, pH 7.2 for 1 h at 37° C. and washed 3 times (150 μL each) with Wash Buffer (50 mM Tris, pH 7.4/100 mM NaCl/1 mM MnCl2/0.05% Tween 20). Stock solutions (100 μM in 100% DMSO) of test compounds were diluted 50 fold with 150 μL of Binding Buffer (0.05% BSA/0.05% Tween 20/1 mM MnCl2/0.14 M NaCl/20 mM HEPES, pH 7.2) plus 10% DMSO. A series of 1:4 dilutions were performed to achieve a concentration range of 0.12 nM-2 μM. Fifty μL per well of each dilution was added to the ICAM-1 coated plates, followed by 50 μL per well of membrane-bound LFA-1 (280 ng/mL in Binding Buffer) derived from transfected 293 cells. The plates were shaken vigorously for 1 min (room temperature) and gently for 2 h (37° C.). After incubation, the plates were washed 3 times (150 μL each) with Wash Buffer. […] The plates were then read at 450 nm.

O=C(O)/C(=C/c1cnc2ccccc2c1)NC(=O)c1ccc(C(=O)NCc2ccc3cc[nH]c3c2)cc1Br
IC50: 0.0417 µM
